Data on 2 molecules can be found in patent US11661419B2, “Benzimidazole derivative compounds and uses thereof” (Pfizer Inc., priority 2019, dated 2023).

Molecules are shown by their SMILES.

This experiment concerns IL-2 in activated CD4+ human T-cells. Nature of the experiment: IL-2 inhibition in supernatants from activated CD4+ human T-cells (cisbio HTRF). In kind it is cell-based. The note with it: T-cell; geometric mean of count n; CD3/CD28-expanded human CD4+ T cells stimulated with ImmunoCult, 20 to 24 hrs. The procedure: IL-2-Inhibition Activity, IC50 (uM)
IL-2 inhibition activity in supernatants from activated CD4+ human T-cells was determined by measuring the effect of a test compound on the activity using the cisbio HTRF™ technology.
Human CD4+ T cells were activated with CD3/CD28 for 3 days and expanded for an additional 4-6 days (7 to 9 days total). On day 0, frozen CD4+ T cells were thawed, treated with CD3/CD28 Dynabeads, and incubated at 37° C./5% CO2. On day 3, the beads were removed, and the cells were diluted to 5×10^5 cells/cm^2, placed in G-Rex10 flask, and incubated at 37° C./5% CO2. On day 7 to day 9 the cells were removed from the G-Rex flasks, counted and diluted back to 1×10^6 cells/ml in standard tissue culture flask.
The expanded CD4+ T-cells were centrifuged at 300×g for 10 minutes and resuspended to 0.5 million cells per ml (30,000 cells/well). 60 μl of CD4+ T cells were added per well to a 384 well plate containing 0.1 μL of varying concentrations of test compound in DMSO. The plates were incubated for 15 min at 37° C./5% CO2. 20 μl of diluted ImmunoCult™ ([…] Technologies, 1:12.5 in T cell assay media) were added to all wells of the plate (1:50 final assay concentration). The plates were incubated for an additional 20 to 24 hrs at 37° C./5% CO2. […] Plates were incubated for 3 hours at RT and read with an EnVision plate reader at 665 nm and 615 nm wavelengths.
(In general: In TR-FRET formats the signal depends on donor and acceptor labels being close together.)

What is called IC50 is the point on the concentration scale where inhibition reaches its midpoint. High values mean a need for much substance, low ones inhibition by little substance.

`Cc1cc2[nH]c(-c3n[nH]c4c3C[C@@H]3C[C@]3(C)C4)nc2cc1N(C)C(=O)[C@H](C)N1CCOCC1` [Example 1, (S)—N-methyl-N-(6-methyl-2-((4aS,5aR)-5a-methyl-1,4,4a,5,5a,6-hexahydrocyclopropa[f]indazol-3-yl)-1H-benzo[d]imidazol-5-yl)-2-morpholinopropanamide] had an IC50 of 39 nM.

Regarding `Cc1cc2[nH]c(-c3n[nH]c4c3C[C@@H]3C[C@]3(C)C4)nc2cc1N(C)C(=O)[C@@H](C)N1CCOCC1` [Example 3, (R)—N-methyl-N-(6-methyl-2-((4aS,5aR)-5a-methyl-1,4,4a,5,5a,6-hexahydrocyclopropa[f]indazol-3-yl)-1H-benzo[d]imidazol-5-yl)-2-morpholinopropanamide], the IC50 came out at 113 nM.
